From patent US10143681B2, “Factor XIa inhibitors” (MERCK SHARP & DOHME CORP., priority 2016, dated 2018)

The chains behind the UniProt entries cited, without tags or fusion partners. Residues count along the entry.
UniProt P03951, 19-387 partner: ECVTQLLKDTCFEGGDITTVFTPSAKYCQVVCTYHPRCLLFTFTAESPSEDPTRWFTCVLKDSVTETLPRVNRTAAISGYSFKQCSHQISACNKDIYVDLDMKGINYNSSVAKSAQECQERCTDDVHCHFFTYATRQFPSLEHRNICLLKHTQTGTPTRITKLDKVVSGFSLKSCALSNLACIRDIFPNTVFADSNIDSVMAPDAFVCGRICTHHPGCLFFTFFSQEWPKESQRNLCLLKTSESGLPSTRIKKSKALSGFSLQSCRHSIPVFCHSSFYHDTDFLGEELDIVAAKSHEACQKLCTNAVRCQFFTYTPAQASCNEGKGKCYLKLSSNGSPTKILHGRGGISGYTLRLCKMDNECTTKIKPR
UniProt P03951, 388-625: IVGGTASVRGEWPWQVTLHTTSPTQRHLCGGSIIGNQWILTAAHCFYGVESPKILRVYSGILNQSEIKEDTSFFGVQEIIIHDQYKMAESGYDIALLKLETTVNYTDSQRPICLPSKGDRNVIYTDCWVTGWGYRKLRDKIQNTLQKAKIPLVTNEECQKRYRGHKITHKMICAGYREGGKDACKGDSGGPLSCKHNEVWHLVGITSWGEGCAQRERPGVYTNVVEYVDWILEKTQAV
UniProt P03952, 20-390 partner: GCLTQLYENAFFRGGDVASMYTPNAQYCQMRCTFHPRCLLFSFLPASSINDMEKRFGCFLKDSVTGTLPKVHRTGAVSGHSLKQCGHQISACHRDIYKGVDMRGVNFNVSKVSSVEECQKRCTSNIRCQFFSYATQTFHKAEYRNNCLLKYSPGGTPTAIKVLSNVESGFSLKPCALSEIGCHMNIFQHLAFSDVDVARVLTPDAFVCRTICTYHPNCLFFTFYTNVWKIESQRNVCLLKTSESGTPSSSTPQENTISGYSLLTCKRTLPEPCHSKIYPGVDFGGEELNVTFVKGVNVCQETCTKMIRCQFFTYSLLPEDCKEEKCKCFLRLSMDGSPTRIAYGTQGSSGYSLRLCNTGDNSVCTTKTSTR
UniProt P03952, 391-638: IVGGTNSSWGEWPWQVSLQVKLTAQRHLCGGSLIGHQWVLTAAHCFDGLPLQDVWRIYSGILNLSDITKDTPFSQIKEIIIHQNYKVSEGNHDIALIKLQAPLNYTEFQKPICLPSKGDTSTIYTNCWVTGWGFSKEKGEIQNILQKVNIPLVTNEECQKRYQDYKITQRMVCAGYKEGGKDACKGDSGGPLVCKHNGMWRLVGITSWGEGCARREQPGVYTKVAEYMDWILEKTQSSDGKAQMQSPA

target: human Factor XIa (Homo sapiens (Human), UniProt P03951); test: Factor XIa Assay; format: biochemical; details: human Factor XIa 0.04 nM, 30 min pre-incubation at 25° C., substrate GPR-AFC; read-out: FXIa IC50
Description: (§1) The effectiveness of a compound of the present invention as an inhibitor of Coagulation Factor XIa can be determined using a relevant purified serine protease, and an appropriate synthetic substrate. The rate of hydrolysis of the chromogenic or fluorogenic substrate by the relevant serine protease was measured both in the absence and presence of compounds of the present invention. Assays were conducted at room temperature or at 37° C. […] A decrease in the rate of fluorescence change in the presence of inhibitor is indicative of enzyme inhibition. Such methods are known to one skilled in the art. The results of this assay are expressed as the half-maximal inhibitory concentrations (IC50), or the inhibitory constant, Ki.
Compounds were pre-incubated for 30 minutes at 25° C. with human (0.04 nM) Factor XIa in 50 mM HEPES buffer with 150 mM sodium chloride, 5 mM calcium chloride, 0.1% PEG 8000, pH 7.4. Factor XIa enzymatic activity was determined by addition of the substrate glycine-proline-arginine-7-amido-4-trifluoromethylcoumarin (GPR-AFC) and measurement of the fluorescence at 400/505 nm after a 60 minute incubation at 25° C. The % inhibition for each data point was calculated from the data and analyzed using the log (inhibitor) vs. response four parameters equation to determine the half-maximal inhibitory concentrations (IC50). The IC50 were converted to equilibrium inhibitory constants (Ki) using the Cheng-Prusoff equation.

IC50	Compound
> 1000 nM	O=C(O)c1ccc(NC(=O)[C@H](CC2CC2)c2ccc(-c3c(OC(F)F)ccc(Cl)c3F)c[n+]2[O-])cc1 (single isomer, unassigned) [Example 1]
2.3 nM	O=C(O)c1ccc(NC(=O)C(CC2CC2(F)F)c2ccc(-c3c(C(F)F)ccc(Cl)c3F)c[n+]2[O-])cc1 (single isomer, unassigned) [Example 77, 2-(1-((4-carboxyphenyl)amino)-3-(2,2-difluorocyclopropyl)-1-oxopropan-2-yl)-5-(3-chloro-6-(difluoromethyl)-2-fluorophenyl)pyridine 1-oxide]
132 nM	O=C(O)c1ccc(NC(=O)C(CC2CC2(F)F)c2ccc(-c3c(C(F)F)ccc(Cl)c3F)c[n+]2[O-])cc1 (single isomer, unassigned) [Example 78, 2-(1-((4-carboxyphenyl)amino)-3-(2,2-difluorocyclopropyl)-1-oxopropan-2-yl)-5-(3-chloro-6-(difluoromethyl)-2-fluorophenyl)pyridine 1-oxide]
65.1 nM	O=C(O)c1ccc(NC(=O)C(CC2CC2(F)F)c2ccc(-c3c(C(F)F)ccc(Cl)c3F)c[n+]2[O-])cc1 (single isomer, unassigned) [Example 79, 2-(1-((4-carboxyphenyl)amino)-3-(2,2-difluorocyclopropyl)-1-oxopropan-2-yl)-5-(3-chloro-6-(difluoromethyl)-2-fluorophenyl)pyridine 1-oxide]
80 nM	CC1(O)CC(CC(C(=O)Nc2ccc(C(=O)O)cc2)c2ccc(-c3c(C(F)F)ccc(Cl)c3F)c[n+]2[O-])C1 (single isomer, unassigned) [Example 82, 2-(1-((4-carboxyphenyl)amino)-3-(3-hydroxy-3-methylcyclobutyl)-1-oxopropan-2-yl)-5-(3-chloro-6-(difluoromethyl)-2-fluorophenyl)pyridine 1-oxide]
0.6 nM	CC1(O)CC(CC(C(=O)Nc2ccc(C(=O)O)cc2)c2ccc(-c3c(C(F)F)ccc(Cl)c3F)c[n+]2[O-])C1 (single isomer, unassigned) [Example 83, 2-(1-((4-carboxyphenyl)amino)-3-(3-hydroxy-3-methylcyclobutyl)-1-oxopropan-2-yl)-5-(3-chloro-6-(difluoromethyl)-2-fluorophenyl)pyridine 1-oxide]
133 nM	CC1(O)CC(CC(C(=O)Nc2ccc(C(=O)O)cc2)c2ccc(-c3c(C(F)F)ccc(Cl)c3F)c[n+]2[O-])C1 (single isomer, unassigned) [Example 84, 2-(1-((4-carboxyphenyl)amino)-3-(3-hydroxy-3-methylcyclobutyl)-1-oxopropan-2-yl)-5-(3-chloro-6-(difluoromethyl)-2-fluorophenyl)pyridine 1-oxide]
2.6 nM	CC1(O)CC(CC(C(=O)Nc2ccc(C(=O)O)cc2)c2ccc(-c3c(C(F)F)ccc(Cl)c3F)c[n+]2[O-])C1 (single isomer, unassigned) [Example 85, 2-(1-((4-carboxyphenyl)amino)-3-(3-hydroxy-3-methylcyclobutyl)-1-oxopropan-2-yl)-5-(3-chloro-6-(difluoromethyl)-2-fluorophenyl)pyridine 1-oxide]
1.8 nM	O=C(O)c1ccc(NC(=O)C(CC2CC(F)C2)c2ccc(-c3c(OC(F)F)ccc(Cl)c3F)c[n+]2[O-])cc1 (single isomer, unassigned) [Example 102, 2-(1-((4-carboxyphenyl)amino)-3-(3-fluorocyclobutyl)-1-oxopropan-2-yl)-5-(3-chloro-6-(difluoromethoxy)-2-fluorophenyl)pyridine 1-oxide]
1000 nM	CCOC(=O)c1ccc(NC(=O)C(CC2CC2)c2ccc(-c3c(C(F)F)ccc(Cl)c3F)c[n+]2[O-])cc1 (single isomer, unassigned) [Example 115, 5-(3-chloro-6-(difluoromethyl)-2-fluorophenyl)-2-(3-cyclopropyl-1-((4-(ethoxycarbonyl)phenyl)amino)-1-oxopropan-2-yl)pyridine 1-oxide]

Continued, compound first:

Compound	IC50
O=C(O)c1ccc(NC(=O)C(CC2CC(F)(F)C2)c2ccc(-c3c(OC(F)F)ccc(Cl)c3F)c[n+]2[O-])cc1 (racemic) [Example 49, (S)- and (R)-2-(1-((4-carboxyphenyl)amino)-3-(3,3-difluorocyclobutyl)-1-oxopropan-2-yl)-5-(3-chloro-6-(difluoromethoxy)-2-fluorophenyl)pyridine 1-oxide]	> 1000 nM
O=C(O)c1ccc(NC(=O)C(CC2CC(F)(F)C2)c2ccc(-c3c(OC(F)F)ccc(Cl)c3F)c[n+]2[O-])cc1 (racemic) [Example 50, (S)- and (R)-2-(1-((4-carboxyphenyl)amino)-3-(3,3-difluorocyclobutyl)-1-oxopropan-2-yl)-5-(3-chloro-6-(difluoromethoxy)-2-fluorophenyl)pyridine 1-oxide]	3.8 nM
CC1CC1C[C@H](C(=O)Nc1ccc(C(=O)O)cc1)c1ccc(-c2c(C(F)(F)F)ccc(Cl)c2F)c[n+]1[O-] (single isomer, unassigned) [Example 64]	177 nM
CC1CC1C[C@@H](C(=O)Nc1ccc(C(=O)O)cc1)c1ccc(-c2c(C(F)(F)F)ccc(Cl)c2F)c[n+]1[O-] (single isomer, unassigned) [Example 65]	1.8 nM
COc1cc(C(CC2CC2)C(=O)Nc2ccc(C(=O)O)cc2)[n+]([O-])cc1-c1c(OC(F)F)ccc(Cl)c1F (single isomer, unassigned) [Example 71, 2-(1-((4-carboxyphenyl)amino)-3-cyclopropyl-1-oxopropan-2-yl)-5-(3-chloro-6-(difluoromethoxy)-2-fluorophenyl)-4-methoxypyridine 1-oxide]	0.47 nM
CC1C(C)C1CC(C(=O)Nc1ccc(C(=O)O)cc1)c1ccc(-c2c(OC(F)F)ccc(Cl)c2F)c[n+]1[O-] (single isomer, unassigned) [Example 100, 2-(1-((4-carboxyphenyl)amino)-3-(2,3-dimethylcyclopropyl)-1-oxopropan-2-yl)-5-(3-chloro-6-(difluoromethoxy)-2-fluorophenyl)pyridine 1-oxide]	144 nM
O=C(O)c1ccc(NC(=O)C(CC2CCC2)c2ccc(-c3c(C(F)F)ccc(Cl)c3F)c[n+]2[O-])cc1F (single isomer, unassigned) [Example 119, 2-(1-((4-carboxy-3-fluorophenyl)amino)-3-cyclobutyl-1-oxopropan-2-yl)-5-(3-chloro-6-(difluoromethyl)-2-fluorophenyl)pyridine 1-oxide]	80.3 nM

target: Human plasma kallikrein (Homo sapiens (Human), UniProt P03952); test: Kallikrein Assay; format: biochemical; details: purified Human plasma kallikrein 0.5 nM, substrate Acetyl-K-P-R-AFC; read-out: P. KLK IC50
Description: as §1, with “Kallikrein” for “Coagulation Factor XIa”
Kallikrein determinations were made in 50 mM HEPES buffer at pH 7.4 containing 150 mM NaCl, 5 mM CaCl2, and 0.1% PEG 8000 (polyethylene glycol; Fisher Scientific). Determinations were made using purified Human plasma kallikrein at a final concentration of 0.5 nM (Enzyme Research Laboratories) and the synthetic substrate, Acetyl-K-P-R-AFC (Sigma # C6608) at a concentration of […].
Times required to achieve equilibration between enzyme and inhibitor were determined in control experiments. The reactions were performed under linear progress curve conditions and fluorescence increase measured at 405 Ex/510 Em nm. […] IC50 was determined by inflection point from a four parameter logistic curve fit. Ki was calculated using the Cheng Prusoff equation, Ki=IC50/(1+([S]/Km)).

IC50	Compound
9.4 nM	CC1(O)CC(CC(C(=O)Nc2ccc(C(=O)O)cc2)c2ccc(-c3c(C(F)F)ccc(Cl)c3F)c[n+]2[O-])C1 (single isomer, unassigned) [Example 83, 2-(1-((4-carboxyphenyl)amino)-3-(3-hydroxy-3-methylcyclobutyl)-1-oxopropan-2-yl)-5-(3-chloro-6-(difluoromethyl)-2-fluorophenyl)pyridine 1-oxide]
38 nM	CC1(O)CC(CC(C(=O)Nc2ccc(C(=O)O)cc2)c2ccc(-c3c(C(F)F)ccc(Cl)c3F)c[n+]2[O-])C1 (single isomer, unassigned) [Example 85, 2-(1-((4-carboxyphenyl)amino)-3-(3-hydroxy-3-methylcyclobutyl)-1-oxopropan-2-yl)-5-(3-chloro-6-(difluoromethyl)-2-fluorophenyl)pyridine 1-oxide]

Continued, compound first:

Compound	IC50
C[C@H]1C[C@@H]1C[C@@H](C(=O)Nc1ccc(C(=O)O)cc1)c1ccc(-c2c(OC(F)F)ccc(Cl)c2F)c[n+]1[O-] (single isomer, unassigned) [Example 55]	21 nM
C[C@@H]1C[C@H]1C[C@@H](C(=O)Nc1ccc(C(=O)O)cc1)c1ccc(-c2c(OC(F)F)ccc(Cl)c2F)c[n+]1[O-] (single isomer, unassigned) [Example 56]	16 nM
CC1CCC1CC(C(=O)Nc1ccc(C(=O)O)cc1)c1ccc(-c2c(OC(F)F)ccc(Cl)c2F)c[n+]1[O-] (single isomer, unassigned) [Example 105, 2-(1-((4-carboxyphenyl)amino)-3-(2-methylcyclobutyl)-1-oxopropan-2-yl)-5-(3-chloro-6-(difluoromethoxy)-2-fluorophenyl)pyridine 1-oxide]	15.7 nM
CC1CCC1CC(C(=O)Nc1ccc(C(=O)O)cc1)c1ccc(-c2c(OC(F)F)ccc(Cl)c2F)c[n+]1[O-] (single isomer, unassigned) [Example 106, 2-(1-((4-carboxyphenyl)amino)-3-(2-methylcyclobutyl)-1-oxopropan-2-yl)-5-(3-chloro-6-(difluoromethoxy)-2-fluorophenyl)pyridine 1-oxide]	59.9 nM
